Measurements published in patent publication US20230339970A1, “CASEIN KINASE 1 DELTA MODULATORS” (priority 2020, published 2023).
pIC50: −log10 of the molar value. Like-named read-outs stand apart in the source and are kept apart here.

Chains of the proteins cited; added tags and fusions are not shown. Lines headed by an entry give the natural chain unless they say otherwise; changes in a name come on top.
UniProt P48730: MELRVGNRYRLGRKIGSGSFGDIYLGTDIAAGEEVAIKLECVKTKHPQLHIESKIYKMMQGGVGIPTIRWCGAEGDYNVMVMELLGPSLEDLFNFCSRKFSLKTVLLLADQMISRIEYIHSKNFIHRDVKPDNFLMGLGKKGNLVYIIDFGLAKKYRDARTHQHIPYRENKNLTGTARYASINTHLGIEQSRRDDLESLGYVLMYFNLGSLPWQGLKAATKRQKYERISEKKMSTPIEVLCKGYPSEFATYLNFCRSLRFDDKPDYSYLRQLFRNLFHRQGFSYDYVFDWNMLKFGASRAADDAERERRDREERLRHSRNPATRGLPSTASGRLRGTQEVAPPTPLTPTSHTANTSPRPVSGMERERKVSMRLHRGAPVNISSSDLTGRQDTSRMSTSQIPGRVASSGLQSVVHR

Experiments:
[1] = molecular target: T1, human CSNK1D (Homo sapiens, UniProt P48730); assay: Whole Cell nBRET CSNK1D Binding Assay
T1 construct: expressed in transfected cells

[2] = molecular target: T2, human recombinant GST cleaved CSNK1D (Homo sapiens, UniProt P48730); assay: Purified Enzyme Assay (ADP-Glo CSNK1D Kinase Assay); assay type: biochemical; settings: 2 nM CSNK1D, peptide substrate 150 μM, ATP 20 μM, 45 minutes at room temperature; for IC50: ADP-Glo ™ CSNK1D Kinase Assay IC50 (μM)
T2 construct: GST (cleaved yes); purchased University of Dundee clone DU 19064
Protocol: In this assay, CSNK1D phosphorylates a substrate peptide PLSRTL-pS-VASLPGL in the presence of ATP. […] This assay monitors CSNK1D kinase activity by measuring the amount of ADP produced in the assay.
The substrate mix is added to each well of a low volume, 384-well, white opaque plate. Test compounds were diluted in HBSS and added in a dose-response to the plate.
The total volume of each reaction is 5 ul (2 μL of substrate mix, 1 μL of diluted compounds, and 2 μL of human recombinant CSNK1D). The plates are incubated for 45 minutes at room temperature.
ADP was quantified using the ADP-Glo™ Kinase Assay. ADP-Glo Reagent (5 μL) was added to each well. After a 1 hour incubation at room temperature, Kinase Detection Reagent (10 μL) was added to each well and incubated for 30 minutes. […] The raw data from the Envision is used to calculate percent activity.

Row | SMILES | pIC50 [1] | IC50 [2] | pIC50 ([2]; read-out: ADP-Glo ™ CSNK1D Kinase Assay IC50)
1 | [2H]C1([2H])OC(C([2H])([2H])[2H])(C([2H])([2H])[2H])C([2H])([2H])n2nc(-c3ccc(F)cn3)c(-c3ccnc4[nH]ncc34)c21 [Example 411, 2-(5-Fluoropyridin-2-yl)-6,6-bis(methyl-d3)-3-(1H-pyrazolo[3,4-b]pyridin-4-yl)-6,7-dihydro-4H-pyrazolo[5,1-c][1,4]oxazine-4,4,7,7-d4] | 7.40 | 0.003 µM | 
2 | [2H]C1([2H])n2nc(-c3ccc(F)cn3)c(-c3ccnc4[nH]ncc34)c2COC1(C)C [Example 143, 2-(5-Fluoropyridin-2-yl)-6,6-dimethyl-3-(1H-pyrazolo[3,4-b]pyridin-4-yl)-6,7-dihydro-4H-pyrazolo[5,1-c][1,4]oxazine-7,7-d2] | 7.42 | 0.005 µM | 
3 | CC1(C)Cn2nc(-c3ccc(F)cn3)c(-c3ccnc4[nH]ncc34)c2CO1 [Example 150, 2-(5-Fluoropyridin-2-yl)-6,6-dimethyl-3-(1H-pyrazolo[3,4-b]pyridin-4-yl)-6,7-dihydro-4H-pyrazolo[5,1-c][1,4]oxazine] | 7.24 | 0.002 µM | 
4 | [2H]C([2H])([2H])C1(C([2H])([2H])[2H])Cn2nc(-c3ccc(F)cn3)c(-c3ccnc4[nH]ncc34)c2CO1 [Example 142, 2-(5-Fluoropyridin-2-yl)-6,6-bis(methyl-d3)-3-(1H-pyrazolo[3,4-b]pyridin-4-yl)-6,7-dihydro-4H-pyrazolo[5,1-c][1,4]oxazine] | 7.15 |  | 8.40
5 | [2H]C1([2H])OC(C)(C)Cn2nc(-c3ccc(F)cn3)c(-c3ccnc4[nH]ncc34)c21 [Example 151, 2-(5-Fluoropyridin-2-yl)-6,6-dimethyl-3-(1H-pyrazolo[3,4-b]pyridin-4-yl)-6,7-dihydro-4H-pyrazolo[5,1-c][1,4]oxazine-4,4-d2] | 7.38 | 0.003 µM | 
